The record followed here is PubChem BioAssay AID602274 (Sanford-Burnham Center for Chemical Genomics, 2012).

This is a selection; strong and weak results do not stand in their true shares. Some of these compounds have results that are not shown, active ones among them. The source made the active and inactive calls. Rule as the data show it: active = survival enhancement above about 18%; inactive = the rest.

The nature of the assay: enhancers of single-cell hiPSC survival, primary screen, ATPlite luminescence (AID 602274).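 Also: cells exposed to compounds for 16 hours before the ATP read.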 Particulars: at 20 µM, hits give high values, 100% = ROCK inhibitor wells, 0% = DMSO.
Take `COc1cccc(C(=O)NCC2(N3CCCCC3)CCCCC2)c1`: the survival enhancement is inactive: -0.7%. Take `COc1ccc(Cl)cc1C(=O)NCC1(N(C)C)CCCCC1`: the survival enhancement is inactive: -0.6%. `O=C(NCC1(N2CCCCC2)CCCCC1)c1cccc(Cl)c1`: the survival enhancement is inactive: 0.5%. Turning to `CN(C)C1(CNC(=O)c2ccc(Br)cc2)CCCCC1`, the survival enhancement is inactive: -0.4%. `COc1cc(C(=O)NCC2(N(C)C)CCCCC2)c([N+](=O)[O-])cc1OC`: the survival enhancement is inactive: 0%. As to `C=C(C)C#CC(O)(C(=O)OC1CCN(C)CC1)c1ccccc1` (stereo unspecified), the survival enhancement is inactive: 5.2%.

As for `COc1ccc(Br)c(C(=O)NCC2(N3CCCCC3)CCCCC2)c1`, the survival enhancement is inactive: -0.5%. Turning to `CC(C)Oc1ccc(C(=O)NCC2(N(C)C)CCCCC2)cc1`, the survival enhancement is inactive: -0.4%. Regarding `O=C(OCCN1CCCC1)C(O)(c1ccccc1)c1ccccc1`, the survival enhancement is inactive: 3%. Take `CN(C)c1cccc(C(=O)NCC2(N(C)C)CCCCC2)c1`: the survival enhancement is inactive: -3.2%. Consider `O=C(OC1CN2CCC1CC2)C(CO)(c1ccccc1)c1ccccc1` (stereo unspecified), for which the survival enhancement was inactive: -2.3%. Take `CCN(CC)CC(C)C(C)OC(=O)C(O)(c1ccccc1)c1ccccc1` (stereo unspecified): the survival enhancement was inactive: -0.2%.

For the molecule `COc1cc(SC)ccc1C(=O)NCC1(N(C)C)CCCCC1`, the survival enhancement is inactive: -0.1%.

Turning to `CC(C)N1C(=O)CC2(CCN(CCOC(=O)C(O)(c3ccccc3)c3ccccc3)CC2)C1=O`, the survival enhancement was inactive: 0.8%. For the molecule `Cc1ccc(C(=O)NCC2(N3CCCCC3)CCCCC2)cc1`, the survival enhancement was inactive: -0.1%. With `O=C(NCC1(N2CCCCC2)CCCCC1)c1cc([N+](=O)[O-])ccc1Cl`, the survival enhancement was inactive: -0.5%. In the case of `CN1[C@@H]2CC[C@H]1CC(OC(=O)C(O)(c1ccccc1)c1ccccc1)C2` (stereo partly specified) it was inactive: 0.2%. Regarding `C=CCN1CCN(CCOC(=O)C(O)(c2ccccc2)c2ccccc2)CC1`, the survival enhancement was inactive: 3.1%. On to `O=C(NCC1(N2CCCCC2)CCCCC1)c1cc(F)c(F)cc1Cl`, for which the survival enhancement was inactive: -0.6%. For the molecule `COc1ccc(C(=O)NCC2(N(C)C)CCCCC2)cc1`, the survival enhancement was inactive: -0.8%. For the molecule `CCN1CCCC(OC(=O)C2(O)c3ccccc3C=Cc3ccccc32)C1` (stereo unspecified), the survival enhancement was inactive: -0.5%. In the case of `Cc1cc(C(=O)NCC2(N3CCCCC3)CCCCC2)ccc1[N+](=O)[O-]` it was inactive: -0.6%; in that of `O=C(NCC1(N2CCCCC2)CCCCC1)c1cccc(Br)c1`, inactive: -0.6%; in that of `Cc1ccccc1C(=O)NCC1(N2CCCCC2)CCCCC1`, inactive: 0.2%. With `CN(C)c1ccc(C(=O)NCC2(N(C)C)CCCCC2)cc1` the figure was inactive: -0.4%; with `CN(C)C1CCCC1OC(=O)C(O)(c1ccccc1)c1ccccc1` (stereo unspecified), inactive: -3.2%.
